# Values of other authors in PMC3443605 (Journal of medicinal chemistry, 2012).
# Conditions: cited from earlier work
compound,measurement,value
"O=C1CCc2ccc(OCCCCN3CCN(c4cccc(Cl)c4Cl)CC3)cc2N1 [Compound 1, aripiprazole]",central nervous system (CNS) penetration,high
